For orientation: Kd means the equilibrium constant for the complex coming apart. Low values mean a tighter complex, high ones a looser complex.

Chains of the proteins cited; added tags and fusions are not shown.
UniProt P03126, whole entry: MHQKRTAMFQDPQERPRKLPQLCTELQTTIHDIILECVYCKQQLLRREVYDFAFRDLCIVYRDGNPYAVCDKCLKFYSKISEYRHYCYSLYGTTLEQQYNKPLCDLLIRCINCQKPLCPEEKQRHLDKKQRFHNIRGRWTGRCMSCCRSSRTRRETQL

Our source for the Kd values is publication PMC3871595, “Structure Based Identification and Characterization of Flavonoids That Disrupt Human Papillomavirus-16 E6 Function” (PLoS ONE, 2013).

This test deals with T1, GST-HPV-16 E6 (human papillomavirus type 16, UniProt P03126 1-158).
T1 construct: early protein 6 (E6) of human papillomavirus type 16; also called GST-E6; GST-16 E6; source: E. coli BL21, purified on glutathione Sepharose beads and kept on the beads
Put plainly: filter plate bead binding assay (BAP chemiluminescence); saturation binding: GST-E6 at 500 ng per well (400 nM) while E6AP-BAP concentration was increased. As to conditions: both partners purified.

B1: E6AP-BAP fusion protein (E6AP residues 371-440 fused to bacterial alkaline phosphatase) (domain or fragment, UniProt Q05086 371-440, looked up)
chain: ASKCLKMVYYANVVGGEVDTNHNEEDDEEPIPESSELTLQELLGEERRNKKGPRVDPLETELGVKTLDCR
notes: also called FLAG-tagged E6AP-BAP; source: E. coli BL21, purified (anti-FLAG resin, glycine pH 2.5 elution)
B1 registered a Kd of 139 nM.
